The record followed here is ChEMBL document CHEMBL1151918, “Clobenpropit analogs as dual activity ligands for the histamine H3 and H4 receptors: synthesis, pharmacological evaluation, and cross-target QSAR studies” (Bioorg Med Chem, 2009).

Protein sequences, listed by entry. Tags and fused reporters are not part of them. Lines headed by an entry give the natural chain unless they say otherwise; changes in a name come on top.
UniProt Q9Y5N1: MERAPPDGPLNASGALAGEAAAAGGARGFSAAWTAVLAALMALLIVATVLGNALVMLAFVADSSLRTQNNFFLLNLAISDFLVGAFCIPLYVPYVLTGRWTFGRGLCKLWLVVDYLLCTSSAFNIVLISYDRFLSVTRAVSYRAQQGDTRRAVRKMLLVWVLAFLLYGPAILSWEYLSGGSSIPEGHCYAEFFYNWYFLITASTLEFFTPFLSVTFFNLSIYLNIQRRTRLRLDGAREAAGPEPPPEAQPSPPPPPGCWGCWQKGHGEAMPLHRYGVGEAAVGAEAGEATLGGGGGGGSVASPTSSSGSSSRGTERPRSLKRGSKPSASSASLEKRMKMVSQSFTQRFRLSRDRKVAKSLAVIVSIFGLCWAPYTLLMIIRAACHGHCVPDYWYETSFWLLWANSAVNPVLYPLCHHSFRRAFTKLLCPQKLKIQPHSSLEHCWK

The test addresses Histamine H3 receptor (Homo sapiens, UniProt Q9Y5N1). As to the kind of experiment: Displacement of [3H]N-alpha-methylhistamine from human histamine H3 receptor expressed in human SK-N-MC cells by liquid scintillation counting. The format is cell-based.

Regarding `NC(=NCc1ccc(Cl)cc1)SCCCc1cnc[nH]1` [CLOBENPROPIT], the Ki – broadly, a measure of affinity in units of concentration, obtained from inhibition or displacement – is 3.16 nM.
